From patent publication US20190070251A1

Biological target: GPR54 G-Protein coupled receptor (cloned human GPR54) (human) (UniProt Q969F8)
Assay: cell-based or functional assay

| EC50 (nM) of agonist activation at GPR54; time of release 0 h [nM] | EC50 (nM) of agonist activation at GPR54; time of release 24 h [nM] | EC50 (nM) of agonist activation at GPR54; time of release 48 h [nM] | EC50 (nM) of agonist activation at GPR54; time of release 96 h [nM] | Binder |
| --- | --- | --- | --- | --- |
| 1700 | 120 | 74 | 47 | YNWNSFGLRF (C-terminal amide; one branched mPEG2-CAC-FMOC-40K attached through a releasable carbamate linkage (site not stated)) [mono-[mPEG2-CAC-FMOC-40K]-[Kisspeptin-10]] |
| 280 |  |  |  | YNWNSFGLRF (C-terminal amide; one mPEG-SBC-30K attached through a releasable carbamate linkage (site not stated)) [mono-[mPEG-SBC-30K]-[Kisspeptin-10]] |
